A short description of this data set: In vitro hydrolytic degradation in PBS (pH 7.4), 37° C.

From US20230355780A1, “Synthetic Implantable Composition with Immunomodulatory Properties” (priority 2022, published 2023) come the findings set out here.

For “poly(2-butyrate trimethylene carbonate-co-T) [P(BtT-T)-40-60]”, the “change in pH of the degradation medium” value is given as “remained unchanged”.
Consider “poly(2-hydroxy trimethylene carbonate-co-T) [P(HT-T)-40-60]”, for which the “change in pH of the degradation medium” value is listed as “largest decrease”.
